Drawing on US9034884B2, “Heterocyclic-substituted pyrrolopyridines and pyrrolopyrimidines as JAK inhibitors” (Incyte Corporation, priority 2010, dated 2015), this text covers IC50 for one molecule.

Sequences of proteins named here, by UniProt entry; tags and fusion partners are left off. Residues count along the entry.
UniProt P23458, 849-1154: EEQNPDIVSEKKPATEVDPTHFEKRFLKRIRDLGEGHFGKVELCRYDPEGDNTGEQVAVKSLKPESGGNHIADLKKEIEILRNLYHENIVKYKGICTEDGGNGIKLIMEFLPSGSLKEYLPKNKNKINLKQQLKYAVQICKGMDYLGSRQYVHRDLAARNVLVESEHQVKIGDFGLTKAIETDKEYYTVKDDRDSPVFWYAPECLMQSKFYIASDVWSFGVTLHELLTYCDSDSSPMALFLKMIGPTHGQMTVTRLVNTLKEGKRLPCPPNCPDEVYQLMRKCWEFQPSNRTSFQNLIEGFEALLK

Molecules are shown by their SMILES.

The target of the assay is T1, human JAK1 (a.a. 837-1142) catalytic domain (Homo sapiens, UniProt P23458).
T1 construct: human JAK1 (a.a. 837-1142); His tag (N); made in house; host or cells: insect cells (baculovirus)
In words: In vitro JAK kinase assay (HTRF, phosphorylation of biotinylated peptide), JAK1. The class given is biochemical. The following applies: Table A; ATP 1 mM. The protocol: Compounds herein were tested for inhibitory activity of JAK targets according to the following in vitro assay described in Park et al., Analytical Biochemistry 1999, 269, 94-104. The catalytic domains of human JAK1 (a.a. 837-1142) and JAK2 (a.a. 828-1132) with an N-terminal His tag were expressed using baculovirus in insect cells and purified. The catalytic activity of JAK1 and JAK2 was assayed by measuring the phosphorylation of a biotinylated peptide. The phosphorylated peptide was detected by homogenous time resolved fluorescence (HTRF). IC50s of compounds were measured for each kinase in the 40 microL reactions that contain the enzyme, ATP and 500 nM peptide in 50 mM Tris (pH 7.8) buffer with 100 mM NaCl, 5 mM DTT, and 0.1 mg/mL (0.01%) BSA. For the 1 mM IC50 measurements, ATP concentration in the reactions was 1 mM. Reactions were carried out at room temperature for 1 hour and then stopped with 20 μL 45 mM EDTA, 300 nM SA-APC, 6 nM Eu-Py20 in assay buffer (Perkin Elmer, Boston, Mass.). Binding to the Europium labeled antibody took place for 40 minutes and HTRF signal was measured on a Fusion plate reader (Perkin Elmer, Boston, Mass.). See Tables A and B for data related to compounds of the invention (at 1 mM). Data is indicated as ranges, wherein “+” is less than 5 nM; “++” is 5 nM to 25 nM; “+++” is greater than 25 nM to 100 nM; and “++++” is greater than 100 nM.
For orientation: In TR-FRET formats the signal depends on donor and acceptor labels being close together.

As for `CN(C)Cc1cc(F)cc(OC2CCN(CC(CC#N)n3cc(-c4ncnc5[nH]ccc45)cn3)CC2)c1` (single isomer, unassigned) [Example 20 Enantiomer 2, 4-(4-{3-[(Dimethylamino)methyl]-5-fluorophenoxy}piperidin-1-yl)-3-[4-(7H-pyrrolo[2,3-d]pyrimidin-4-yl)-1H-pyrazol-1-yl]butanenitrile (chiral)], the IC50 (usually the concentration needed to halve the response being measured) is below 5 nM.
